PMC9738565, “N1-Benzyl Tryptamine Pan-SHIP1/2 Inhibitors: Synthesis and Preliminary Biological Evaluation as Anti-Tumor Agents” (Molecules, 2022)

Biological target: T1, SHIP2 (Homo sapiens, UniProt O15357)
T1 construct: purchased Echelon Biosciences
T1 sequence (O15357 1-1258): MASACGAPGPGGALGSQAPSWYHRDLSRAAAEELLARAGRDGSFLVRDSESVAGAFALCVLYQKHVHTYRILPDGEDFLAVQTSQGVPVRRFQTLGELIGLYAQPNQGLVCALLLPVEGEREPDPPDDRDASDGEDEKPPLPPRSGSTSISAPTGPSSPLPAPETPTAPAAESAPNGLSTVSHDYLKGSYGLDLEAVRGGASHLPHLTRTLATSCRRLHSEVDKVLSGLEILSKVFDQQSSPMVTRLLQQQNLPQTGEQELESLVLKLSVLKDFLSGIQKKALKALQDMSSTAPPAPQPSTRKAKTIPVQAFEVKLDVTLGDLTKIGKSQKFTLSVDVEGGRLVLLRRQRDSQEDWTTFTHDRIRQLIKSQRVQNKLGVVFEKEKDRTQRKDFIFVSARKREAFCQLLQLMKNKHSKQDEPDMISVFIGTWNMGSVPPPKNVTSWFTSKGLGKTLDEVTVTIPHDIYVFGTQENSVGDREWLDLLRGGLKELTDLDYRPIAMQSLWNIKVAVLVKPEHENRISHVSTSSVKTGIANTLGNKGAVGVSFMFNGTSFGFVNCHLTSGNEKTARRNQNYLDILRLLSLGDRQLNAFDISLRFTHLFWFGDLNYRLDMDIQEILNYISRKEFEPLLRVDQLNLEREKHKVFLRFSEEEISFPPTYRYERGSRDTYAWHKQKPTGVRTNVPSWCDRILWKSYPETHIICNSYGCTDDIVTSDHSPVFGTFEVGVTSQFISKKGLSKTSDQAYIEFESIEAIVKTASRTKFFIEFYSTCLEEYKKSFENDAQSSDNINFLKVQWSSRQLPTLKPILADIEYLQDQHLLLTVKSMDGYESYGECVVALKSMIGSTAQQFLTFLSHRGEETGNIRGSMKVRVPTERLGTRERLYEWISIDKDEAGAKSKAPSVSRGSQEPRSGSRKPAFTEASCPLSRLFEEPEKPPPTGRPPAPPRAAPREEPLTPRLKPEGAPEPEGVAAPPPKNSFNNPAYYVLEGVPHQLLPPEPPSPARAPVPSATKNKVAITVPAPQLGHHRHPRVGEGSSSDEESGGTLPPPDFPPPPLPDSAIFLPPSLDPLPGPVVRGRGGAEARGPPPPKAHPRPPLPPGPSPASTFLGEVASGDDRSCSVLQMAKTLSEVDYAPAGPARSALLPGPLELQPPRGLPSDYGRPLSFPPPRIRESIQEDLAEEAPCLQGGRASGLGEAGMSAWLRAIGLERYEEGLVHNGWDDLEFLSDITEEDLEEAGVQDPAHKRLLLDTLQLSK
Assay: Fluorescence Polarization (FP) assay for the detection of PI(3,4)P2, SHIP2
Format: biochemical
Conditions: read-out: IC50 SHIP2 (via FP)

CSc1ccc2c(c1)c(CCN)c(C)n2Cc1ccc(Cl)cc1.Cl [Compound 7b, 2-(1-(4-Chlorobenzyl)-2-methyl-5-(methylthio)-1H-indol-3-yl)ethanaminium chloride]
IC50: 14 µM
